These are literature values, as cited in patent publication US20120209223A1.

This is a selection: effects in other tests are not listed, and their absence says nothing.

For this series the following is noted: Roy et al., J. Pharm. Sci. 1996.

Consider `CCC(=O)N(c1ccccc1)C1CCN(CCc2ccccc2)CC1`, for which the “concentration of fentanyl in the polyisobutylene matrix at which active ingredient is precipitating” value is “more than 4%”.
